Measured values from PubChem BioAssay (NCI).
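Compound exposure: 48 hours, 5 concentrations, 96-well plates. The concentration for full growth arrest is given as TGI.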

Experiments:
Assay in all cases: inhibition of tumour cell growth, NCI panel, 48 h
NCI-H226 lung = system: NCI-H226 lung
RPMI-8226 leukemia = system: RPMI-8226 leukemia
SF-295 CNS = system: SF-295 CNS
PC-3 prostate = system: PC-3 prostate
OVCAR-4 ovarian = system: OVCAR-4 ovarian
MOLT-4 leukemia = system: MOLT-4 leukemia
SN12C renal = system: SN12C renal
786-0 renal = system: 786-0 renal
SF-539 CNS = system: SF-539 CNS
KM12 colon = system: KM12 colon
MDA-N = system: MDA-N
HS 578T breast = system: HS 578T breast
UO-31 renal = system: UO-31 renal
SNB-75 CNS = system: SNB-75 CNS
M14 melanoma = system: M14 melanoma
MDA-MB-435 = system: MDA-MB-435
HCC-2998 colon = system: HCC-2998 colon
ACHN renal = system: ACHN renal
SK-OV-3 ovarian = system: SK-OV-3 ovarian
CAKI-1 renal = system: CAKI-1 renal
OVCAR-5 ovarian = system: OVCAR-5 ovarian
SNB-19 CNS = system: SNB-19 CNS
SK-MEL-5 melanoma = system: SK-MEL-5 melanoma
SR leukemia = system: SR leukemia
TK-10 renal = system: TK-10 renal
SK-MEL-2 melanoma = system: SK-MEL-2 melanoma
SK-MEL-28 melanoma = system: SK-MEL-28 melanoma
HCT-15 colon = system: HCT-15 colon
NCI-H460 lung = system: NCI-H460 lung
U251 CNS = system: U251 CNS
OVCAR-8 ovarian = system: OVCAR-8 ovarian
EKVX NSCLC = system: EKVX NSCLC
COLO 205 colon = system: COLO 205 colon
HL-60(TB) leukemia = system: HL-60(TB) leukemia
NCI/ADR-RES ovarian = system: NCI/ADR-RES ovarian
RXF 393 renal = system: RXF 393 renal
MDA-MB-231 breast = system: MDA-MB-231 breast
NCI-H522 lung = system: NCI-H522 lung
HT29 colon = system: HT29 colon
T-47D breast = system: T-47D breast
OVCAR-3 ovarian = system: OVCAR-3 ovarian
IGROV1 ovarian = system: IGROV1 ovarian
MALME-3M melanoma = system: MALME-3M melanoma
SF-268 CNS = system: SF-268 CNS
UACC-257 melanoma = system: UACC-257 melanoma
K-562 leukemia = system: K-562 leukemia
SW-620 colon = system: SW-620 colon
A549 NSCLC = system: A549 NSCLC
HOP-92 NSCLC = system: HOP-92 NSCLC
UACC-62 melanoma = system: UACC-62 melanoma
LOX IMVI melanoma = system: LOX IMVI melanoma
NCI-H23 lung = system: NCI-H23 lung
HCT-116 colon = system: HCT-116 colon
NCI-H322M lung = system: NCI-H322M lung
MCF7 breast = system: MCF7 breast
A498 renal = system: A498 renal
DU-145 prostate = system: DU-145 prostate
CCRF-CEM leukemia = system: CCRF-CEM leukemia

NP(=O)(OCc1ccc([N+](=O)[O-])o1)N(CCBr)CCBr (stereo not drawn)
TGI (NCI-H226 lung): 8.23 µM | TGI (RPMI-8226 leukemia): 24.3 µM | TGI (SF-295 CNS): 8.13 µM | TGI (PC-3 prostate): 15.8 µM | TGI (OVCAR-4 ovarian): 3.98 µM | TGI (MOLT-4 leukemia): 1.26 µM | TGI (SN12C renal): 17.7 µM | TGI (786-0 renal): 3.09 µM | TGI (SF-539 CNS): 5.85 µM | TGI (KM12 colon): 4.84 µM | TGI (MDA-N): 11.4 µM | TGI (HS 578T breast): 17.2 µM | TGI (UO-31 renal): 2.54 µM | TGI (SNB-75 CNS): 3.06 µM | TGI (M14 melanoma): 8.79 µM | TGI (MDA-MB-435): 6.85 µM | TGI (HCC-2998 colon): 2.04 µM | TGI (ACHN renal): 3.64 µM | TGI (SK-OV-3 ovarian): 20.3 µM | TGI (CAKI-1 renal): 2.66 µM | TGI (OVCAR-5 ovarian): 7.35 µM | TGI (SNB-19 CNS): 20.8 µM | TGI (SK-MEL-5 melanoma): 2.88 µM | TGI (SR leukemia): 0.362 µM | TGI (TK-10 renal): 14.2 µM | TGI (SK-MEL-2 melanoma): 12 µM | TGI (SK-MEL-28 melanoma): 29.3 µM | TGI (HCT-15 colon): 2.74 µM | TGI (NCI-H460 lung): 1.72 µM | TGI (U251 CNS): 7.58 µM | TGI (OVCAR-8 ovarian): 2.69 µM | TGI (EKVX NSCLC): 9.08 µM | TGI (COLO 205 colon): 10.7 µM | TGI (HL-60(TB) leukemia): 0.201 µM | TGI (NCI/ADR-RES ovarian): 13.3 µM | TGI (RXF 393 renal): 3.96 µM | TGI (MDA-MB-231 breast): 29.4 µM | TGI (NCI-H522 lung): 2.1 µM | TGI (HT29 colon): 4 µM | TGI (T-47D breast): 21.4 µM | TGI (OVCAR-3 ovarian): 7.27 µM | TGI (IGROV1 ovarian): 2.9 µM | TGI (MALME-3M melanoma): 2.52 µM | TGI (SF-268 CNS): 6.3 µM | TGI (UACC-257 melanoma): 4.42 µM | TGI (K-562 leukemia): 33.2 µM | TGI (SW-620 colon): 23.6 µM | TGI (A549 NSCLC): 6.32 µM | TGI (HOP-92 NSCLC): 9.33 µM | TGI (UACC-62 melanoma): 2.38 µM | TGI (LOX IMVI melanoma): 3.08 µM | TGI (NCI-H23 lung): 2.15 µM | TGI (HCT-116 colon): 10.3 µM | TGI (NCI-H322M lung): 30.4 µM | TGI (MCF7 breast): 3.95 µM | TGI (A498 renal): 3.14 µM | TGI (DU-145 prostate): 13.9 µM | TGI (CCRF-CEM leukemia): 10.3 µM
